# Assay results taken from patent publication US6638952B1, “Aromatic sulfonyl alpha-cycloamino hydroxamic acid compounds” (Pharmacia Corporation, priority 1997, dated 2003).
# Where a name gives a salt, the structure may show the parent alone.
# Biological target: T1, recombinant human MMP-1 (Homo sapiens, UniProt P03956)
# T1 construct: made in house; host or cells: transfected HT-1080 cells (provided by Dr. Howard Welgus, Washington University)
# T1 sequence (P03956 100-469): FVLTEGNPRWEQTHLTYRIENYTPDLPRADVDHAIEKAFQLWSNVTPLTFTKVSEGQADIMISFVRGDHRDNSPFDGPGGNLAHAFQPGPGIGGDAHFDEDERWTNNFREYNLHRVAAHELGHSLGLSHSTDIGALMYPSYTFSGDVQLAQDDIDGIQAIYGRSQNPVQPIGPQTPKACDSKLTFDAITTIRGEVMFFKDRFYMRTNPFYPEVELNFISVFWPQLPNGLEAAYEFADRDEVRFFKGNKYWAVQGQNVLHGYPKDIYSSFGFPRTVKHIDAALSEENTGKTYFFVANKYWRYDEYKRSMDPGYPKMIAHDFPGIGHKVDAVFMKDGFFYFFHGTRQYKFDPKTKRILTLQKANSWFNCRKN
# Test: In vitro metalloprotease inhibition, fluorogenic peptide substrate
# Type: biochemical
# Conditions: APMA-activated enzyme, room temperature, pH 7.5, substrate 4 μM
row,SMILES,IC50
1,"C#CCN1CCC(CS(=O)(=O)c2ccc(Oc3ccc(C)c(C)c3)cc2)(C(=O)NO)CC1 [Example 7, N-Hydroxy-4-[[[4-(3,4-dimethylphenoxy)phenyl]sulfonyl]-methyl]-1-(2-propynyl)-4-piperidinecarboxamide, Monohydrochloride]",7.7 µM
2,"C#CCN1CCCC1(CS(=O)(=O)c1ccc(Oc2ccccc2)cc1)C(=O)NO (centres unmarked) [Example 8, N-Hydroxy-2-[[(4-phenoxyphenyl)sulfonyl]-methyl]-1-(2-propynyl)-2-pyrrolidine Carboxamide, Monohydrochloride]",0.4 µM
